Laboratory results published in publication PMC4624854 (Frontiers in Molecular Neuroscience, 2015).
Residue numbers refer to the chain shown, from its start.

Tests used:
[1] = biological target: T1, α2 (T59A/A261G/A303S) GlyRs (Homo sapiens, UniProt P23416, A288G/A330S/T86A); experiment: whole-cell patch-clamp of Igly, mutant α2 (T59A/A261G/A303S) GlyRs in CHO cells; type: cell-based; conditions: read-out: glycine EC50 in control, cell illustrated in Figure 6C; no ginkgolic acid; one cell
T1 construct: expressed in transfected cells; host or cells: CHO
T1 sequence (P23416 28-452 T86A/A288G/A330S): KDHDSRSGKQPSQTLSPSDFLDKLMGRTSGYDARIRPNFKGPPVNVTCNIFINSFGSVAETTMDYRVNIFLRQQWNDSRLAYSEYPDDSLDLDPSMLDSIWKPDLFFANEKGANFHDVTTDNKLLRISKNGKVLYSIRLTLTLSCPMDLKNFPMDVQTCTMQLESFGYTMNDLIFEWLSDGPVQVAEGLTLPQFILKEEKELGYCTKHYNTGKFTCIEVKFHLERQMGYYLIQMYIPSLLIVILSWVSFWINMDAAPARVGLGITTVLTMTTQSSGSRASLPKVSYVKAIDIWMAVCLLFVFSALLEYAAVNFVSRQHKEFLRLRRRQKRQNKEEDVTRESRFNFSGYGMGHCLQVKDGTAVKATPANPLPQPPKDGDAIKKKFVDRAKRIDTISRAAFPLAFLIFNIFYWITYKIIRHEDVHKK

[2] = biological target: T2, α2 GlyRs (Homo sapiens, UniProt P23416); experiment: whole-cell patch-clamp of Igly, homomeric α2 GlyRs in CHO cells; type: cell-based; conditions: read-out: EC50 to glycine; control, n = 10 (range and mean)
T2 construct: expressed in transfected cells; host or cells: CHO-K1
T2 sequence (P23416 28-452): T1 sequence (P23416 28-452 T86A/A288G/A330S) with A59T, G261A, S303A

What does the source list for NCC(=O)O [glycine, reference compound]?
EC50 [1]: 157 µM; EC50 [2]: 42 ± 2 µM
